## Yeast mating assay 2: variants of the scFv Ab-95

Data: MIT Lincoln Laboratory AlphaSeq set, Engelhart et al. 2022, doi:10.1038/s41597-022-01779-4, as distributed in FLAb.

All variants were tested on one target, the spike HR2 peptide PDVDLGDISGINAS (SARS-CoV-2).

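AAYL52 was designed without a model: most single CDR substitutions and a random sample of double and triple ones. AlphaSeq pools MATa yeast showing the antibodies with MATalpha yeast showing the peptide. The frequency of each diploid, read from paired DNA barcodes, reflects how well the two displayed proteins bind. Read counts were normalised to the haploid input and turned into Kd by a linear fit to BCL2-family pairs of known affinity, for each replicate. Each pool was mated in three replicate cultures.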

Ab-95 is the parent antibody, in scFv form: VH, then the linker GGGGSGGGGSGGGGS, then VL. The heavy chain is unchanged in all variants.
VH: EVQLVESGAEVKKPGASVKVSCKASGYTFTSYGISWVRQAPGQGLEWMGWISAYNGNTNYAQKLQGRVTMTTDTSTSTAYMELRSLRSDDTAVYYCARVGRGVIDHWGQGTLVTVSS
VL: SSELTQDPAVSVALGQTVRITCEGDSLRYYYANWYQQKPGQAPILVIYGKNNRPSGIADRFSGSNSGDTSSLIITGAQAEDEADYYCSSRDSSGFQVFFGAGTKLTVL

Changes read parent residue, position, new residue, counted from the first residue of the VL shown. Numbers give log10(Kd / nM), so 0 is 1 nM and 3 is 1 µM. Smaller is tighter. Where no diploid with the target was found in that replicate, the entry reads "ND": below detection, most likely a poor binder, though not proof of it.

| # | changes | log10 Kd (nM) by replicate | control signals |
|---|---|---|---|
| 1 | L27S/P54S/R90P | ND / ND / ND | 3/9 (4.40) |
| 2 | R28E/N51C/R90L | ND / ND / ND | 2/9 (3.77) |
| 3 | G24A/P54W/S55E | ND / 3.69 / 2.46 | 4/9 (4.21) |
| 4 | D91C/V97I | ND / ND / ND | 4/9 (3.89) |
| 5 | Y29T/S89G/S92I | 2.40 / 2.35 / 2.16 | 1/9 (4.99) |
| 6 | D25R/P54A/S88M | 1.59 / 1.72 / 0.78 | 4/9 (3.51) |
| 7 | R28F/N33P/S88Q | ND / ND / ND | 1/9 (2.43) |
| 8 | G24Q/S89P/D91P | ND / ND / ND | 1/9 (3.78) |
| 9 | N51F/G94E | ND / 3.96 / ND | 3/9 (3.72) |
| 10 | R28K/Y31A/S88R | 1.81 / 1.84 / 0.79 | 5/9 (3.82) |
| 11 | N33T/N52C/G94T | 3.90 / 4.36 / ND | 2/9 (4.24) |
| 12 | N33Q/K50W/G94S | 2.59 / 1.82 / 1.66 | 3/9 (4.09) |
| 13 | Y31M/R90Q/S92L | 2.34 / 2.03 / 1.61 | 3/9 (3.80) |
| 14 | D25C/R53K/F98A | ND / ND / ND | 2/9 (4.46) |
| 15 | L27R/Y29Q/S55K | ND / 3.25 / ND | 3/9 (3.34) |
| 16 | E23L/R90H/G94W | 3.69 / 2.96 / ND | 2/9 (3.78) |
| 17 | R53Q/F95L/F98W | ND / ND / ND | 2/9 (4.17) |
| 18 | N33K/K50D/S88I | 3.52 / ND / ND | 3/9 (3.99) |
| 19 | K50W/N52M/S89I | 4.38 / 5.52 / 4.08 | 3/9 (4.15) |
| 20 | Y31D/F95P | 1.56 / 1.61 / 1.22 | 2/9 (3.21) |
| 21 | Y31V/S89V | 3.32 / 3.48 / 2.52 | 2/9 (4.23) |
| 22 | G49R/V97L/F98V | ND / ND / ND | 3/9 (4.24) |
| 23 | S26C/S88N/R90K | ND / ND / ND | 2/9 (3.40) |
| 24 | D25M/S89G/F98K | ND / ND / ND | 0/9 |
| 25 | G24W/P54A/V97G | 3.48 / ND / 3.49 | 5/9 (4.88) |
| 26 | G24F/R90S/Q96W | 4.04 / 4.68 / ND | 3/9 (3.83) |
| 27 | E23F/L27Y/F95R | 3.43 / 3.73 / 3.06 | 0/9 |
| 28 | N33M/N51Y/D91I | 3.69 / 4.62 / ND | 3/9 (4.13) |
| 29 | G24H/S89M/F95W | ND / ND / ND | 2/9 (4.33) |
| 30 | D25L/Y29Q/N51P | 3.93 / ND / ND | 1/9 (3.17) |
| 31 | E23H/S93M/G94S | 2.55 / 2.39 / 2.53 | 3/9 (3.56) |
| 32 | S26K/S55E/Q96T | ND / ND / ND | 0/9 |
| 33 | S26L/G49S/R90G | 2.84 / 3.97 / 3.69 | 1/9 (4.12) |
| 34 | G24Q/P54A/F95Y | 1.77 / 2.33 / 1.57 | 3/9 (4.04) |
| 35 | L27T/Y31M/F95T | 3.15 / ND / 2.75 | 2/9 (4.56) |
| 36 | G24L/K50L/D91K | ND / ND / ND | 3/9 (3.53) |
| 37 | E23G/G49F/S93T | ND / ND / ND | 4/9 (4.28) |
| 38 | L27Q/N52P/S89V | ND / ND / 4.28 | 4/9 (4.25) |
| 39 | Y29I/S55T/S89A | 3.21 / 3.69 / ND | 4/9 (3.90) |

Excerpt, the final 4 entries:

| changes | log10 Kd (nM) by replicate | control signals |
|---|---|---|
| G24L/K50L/D91K | ND / ND / ND | 3/9 (3.53) |
| E23G/G49F/S93T | ND / ND / ND | 4/9 (4.28) |
| L27Q/N52P/S89V | ND / ND / 4.28 | 4/9 (4.25) |
| Y29I/S55T/S89A | 3.21 / 3.69 / ND | 4/9 (3.90) |

Background: pairings of library AAYL52 with three empty control strains gave a value in 28% of cases (median 3.91, 5th percentile 2.90). Values in that range, when seen in few replicates, are hard to tell from nonspecific mating. For each scFv, signals with the empty controls are counted beside the result, with their mean in brackets. Parent in this assay: reference entry 2.31, copy in this library 2.25.